In article PMC3189208 (PLoS ONE, 2011):

What was measured:
MOR = conditions: cited from earlier work
[1] = tested on: MOR kinase pathways in HEK-MOR cells; type: cell-based, human

(Leu^5)-enkephalin
Kd (MOR): 7.4 nM
maximal DMR response after SB202190 pretreatment vs untreated [1]: significantly reduced
